Experimental data published in ChEMBL document CHEMBL5113506, “Discovery of novel human lactate dehydrogenase inhibitors: Structure-based virtual screening studies and biological assessment” (Eur J Med Chem, 2022).

Target: L-lactate dehydrogenase A chain (Homo sapiens, UniProt P00338)
Test: Inhibition of LDHA in human Med1 cells using pyruvate as substrate incubated 10 mins by spectrophotometric analysis
Assay type: cell-based, Medulloblastoma cell

## NC(=O)C(=O)O [SODIUM OXAMATE]
  IC50: 16.5 µM
